# Antibody variant affinities, Ab-95 light chain, assay 2

Reference: Engelhart et al. 2022, doi:10.1038/s41597-022-01779-4. File: FLAb, binding data.

Target: peptide PDVDLGDISGINAS, taken from heptad repeat 2 (HR2) of SARS-CoV-2 spike.

Each scFv is VH, three GGGGS repeats, VL, as in the parent Ab-95, and differs from it in the CDRs of the light chain only.
VH: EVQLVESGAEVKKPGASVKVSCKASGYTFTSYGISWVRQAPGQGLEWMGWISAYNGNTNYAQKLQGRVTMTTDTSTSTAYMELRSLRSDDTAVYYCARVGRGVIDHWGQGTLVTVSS
VL: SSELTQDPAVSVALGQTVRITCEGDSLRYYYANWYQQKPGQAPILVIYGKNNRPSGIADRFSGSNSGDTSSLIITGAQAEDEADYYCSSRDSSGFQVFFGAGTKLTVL

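Phage display of a naive human antibody library on the peptide gave the parent. The library (AAYL52) carries one to three amino acid substitutions per variant, with no insertions or deletions. The assay is AlphaSeq: two haploid yeast populations carry antibody and antigen on their surface. After mating in shaken culture at 30 °C for 16 h, diploids were selected and their barcode pairs sequenced. Scores were corrected for input abundance and mapped to Kd with protein pairs of known affinity run in the same pool. The assay was run in three technical replicates.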

Each variant is given by its three light chain CDRs, as the data file delimits them; those of the parent are EGDSLRYYYAN, GKNNRPS, SSRDSSGFQVF.
Scale: log10 of Kd in nM, estimated from mating counts; low values are strong binders.
A mean of the replicates is given; it leaves out those without a signal.
An entry "nd" has no value in the source: the pair was not observed among the diploids in any replicate. This suggests poor binding but is not conclusive.
Empty control strains, which show no peptide, gave a signal in 28% of pairings with library AAYL52; the median was 3.91 and 95% of these signals were weaker than 2.90. No background was subtracted. For each scFv, signals with the empty controls are counted beside the result.
Parent in this assay: reference entry 2.31, copy in this library 2.25.

"log10 Kd (nM), mean",seen in,signal with controls,CDR-L1,CDR-L2,CDR-L3
5.88,1 of 3,1 of 9,EGDSLRYYYAN,GKYNRPA,SSRDSSGFQVV
3.35,3 of 3,4 of 9,EGASLRYYYAN,GFNNRPT,SSRDSSGFQVF
4.58,1 of 3,1 of 9,EGDSLRYYYAN,GKFNRPS,SSIISSGFQVF
4.11,1 of 3,0 of 9,EGDSLRYYYAN,GKNNRKS,SSRDPGGFQVF
3.81,3 of 3,2 of 9,EGDSGRYYYAN,GKNNRPS,SKRDSSGFQVG
2.91,3 of 3,3 of 9,HGDSLRYYYAN,GPNNRPS,SSRDSSGFMVF
4.38,3 of 3,4 of 9,EGDSLRYYYAN,GKWNRPS,SSRDSSGFAIF
3.14,2 of 3,1 of 9,EGDSLRYYYAN,GKNPDPS,SSRDSSGFQVC
3.45,2 of 3,2 of 9,EGDSLRMYYAN,GKNNRPS,SSMASSGFQVF
2.34,3 of 3,1 of 9,EGDSLRYYYSN,GKNNRPS,SGNDSSGFQVF
3.51,3 of 3,2 of 9,EGDALRYYYAN,GKNNRPS,SSRPSSQFQVF
5.49,1 of 3,4 of 9,EGDSLCYYIAN,GKNNRPS,SSRDSSGFQVF
4.81,1 of 3,2 of 9,EGDSLRYWYAN,GKINRPS,SSRDSYGFQVF
4.47,1 of 3,7 of 9,EGDSLRYYYAN,GKNNCPS,YSRDSSGWQVF
2.07,3 of 3,4 of 9,EGPSLQYYYAN,GKNNRPS,SSRDSSGVQVF
1.68,3 of 3,3 of 9,EGDSLRYSEAN,GKNNRPS,SSRISSGFQVF
2.03,3 of 3,3 of 9,EGDGLRYYYAN,GKGNRPA,SSRDSSGFQVF
3.66,1 of 3,1 of 9,EGDSLRYYYAN,YKNNRPS,SGRDHSGFQVF
5.84,1 of 3,3 of 9,EGDSLRYYYAY,GKNNRPS,GSRDSSGFQVF
3.12,3 of 3,6 of 9,EGDSLRYYYAN,GKNNRPS,GSDDSAGFQVF
3.89,2 of 3,4 of 9,EGDSMRYYYAN,GKLNRPS,SSRDSSNFQVF
nd,0 of 3,2 of 9,EGDSEQYYYAN,GKNNRPN,SSRDSSGFQVF
1.28,3 of 3,3 of 9,EGDSLRYRYAN,GTNNRPS,SSRDSSGFQVF
4.64,1 of 3,4 of 9,EGDSLRYYYAN,GLNNEPP,SSRDSSGFQVF
3.74,3 of 3,5 of 9,EGWSLRYYYAN,GKNNRPS,DSGDSSGFQVF
3.92,1 of 3,0 of 9,EGDSYDYYYAN,GKNNRPS,SSRDSSGFQVW
4.17,3 of 3,6 of 9,EGDSHYYYYAN,GKNNRPS,SSRDPSGFQVF
1.05,3 of 3,6 of 9,EGSSLRYEYAN,GKNNRPS,SSRDSSGFQVF
nd,0 of 3,0 of 9,EGDSLCYYYAN,GKNNRPS,SSQDSSGKQVF
3.49,3 of 3,1 of 9,RQDSKRYYYAN,GKNNRPS,SSRDSSGFQVF
nd,0 of 3,4 of 9,EGDSLRIYYAN,GKNNRPS,SSRDSPGFQKF
2.77,3 of 3,2 of 9,EGDSLRYRYAN,GKNNRPS,SSRDSYGFQNF
1.58,3 of 3,1 of 9,EGPSLRYYNAN,GKNNRPS,GSRDSSGFQVF
5.07,1 of 3,2 of 9,EGDSLFYYYAN,GKNNQPF,SSRDSSGFQVF
4.38,1 of 3,1 of 9,EGDSLRYYYAN,GKNNRPP,SSRDSSLFCVF
2.53,3 of 3,3 of 9,NGDSLRYYYAN,GKNNRPS,SSRDSSKTQVF
2.26,3 of 3,4 of 9,EGDSLRYHYAN,GKNNRPS,SKRDWSGFQVF
3.49,3 of 3,2 of 9,EGDSLRYYYAN,GKNNRPS,SSHDHSYFQVF
3.65,1 of 3,4 of 9,EGDSLRYYYWN,GKNNFPS,SSRDSSGFQCF
2.40,3 of 3,1 of 9,EGDSLRYYYVN,GKNNRPF,CSRDSSGFQVF
3.34,2 of 3,0 of 9,EGDSLIYYYAN,EKNNRPW,SSRDSSGFQVF
3.22,3 of 3,2 of 9,EGYSLRYYYDN,GKQNRPS,SSRDSSGFQVF
3.90,3 of 3,2 of 9,EGDSLRYYYAN,GKNNRPS,SSNDTSGFQVF
nd,0 of 3,3 of 9,EGDSLRYYYAH,GKNWRPS,SSRDSSGFQKF
2.88,3 of 3,5 of 9,EGDSLRYYDAN,EYNNRPS,SSRDSSGFQVF
nd,0 of 3,0 of 9,EIDSLRYYYRN,GKNNRPS,NSRDSSGFQVF
1.43,3 of 3,3 of 9,EGDSLRNYYAN,GKNNRPS,SSRDSSWFTVF
2.55,3 of 3,3 of 9,EGISLRYMYAN,GKNNRPS,SSRPSSGFQVF
2.69,3 of 3,3 of 9,EGDSLRIYYAN,GKMNRPS,SSRPSSGFQVF
2.84,3 of 3,6 of 9,EGDVLRYRYAN,GKNWRPS,SSRDSSGFQVF
2.60,3 of 3,5 of 9,EGDSIRYYYAN,GKNNRPS,SSRDGSGFQVF
nd,0 of 3,2 of 9,EGDSLRYYYAN,FQNPRPS,SSRDSSGFQVF
3.92,1 of 3,2 of 9,EMDSDRYYYAN,GKNNRYS,SSRDSSGFQVF
2.03,3 of 3,4 of 9,EGDSLMYYYAN,GKNERPS,SSRDSSGFQVF
3.69,2 of 3,1 of 9,EGDCLRYYMAN,GKNNRPS,SSRDRSGFQVF
2.66,3 of 3,2 of 9,EGDSLRYYYAN,GKNNRPS,SERDGSGFQHF
2.42,3 of 3,4 of 9,NGDCLRYYYAN,FKNNRPS,SSRDSSGFQVF
3.59,1 of 3,2 of 9,EGDSLRYYYAN,GRNNVPS,SSADSSGFQVF
3.57,2 of 3,2 of 9,EGDSLRVYYAN,GKNNRPS,KSRISSGFQVF
3.66,1 of 3,1 of 9,EWDSLRYYYAW,GKWNRPS,SSRDSSGFQVF
nd,0 of 3,2 of 9,EGDSLYYYYAN,GKNNPPS,SSRDSSGFQVV
3.03,3 of 3,5 of 9,EGDSHRYWYAN,GKNNRPS,SSRDSSGFQVF
2.90,3 of 3,2 of 9,EVDELRYYYAN,GKNNRPS,SSRDSSGFNVF
nd,0 of 3,2 of 9,EGDSLRYYYYN,GKNNRPN,SSRDSSGFQHF
3.18,3 of 3,4 of 9,EGDSLRDYYAN,GKNNRFS,SSADSSGFQVF
nd,0 of 3,2 of 9,EGDSHRYYYAT,LKNNRPS,SSRDSSGFQVF
2.79,3 of 3,4 of 9,EGVSLRYYKAN,GKNNRPS,SSRDSCGFQVF
4.46,1 of 3,2 of 9,EGDSLRYYYAN,GKNNRPS,SFRDSSGMQLF